Data on one compound can be found in patent US10278957B2, “Opioid agonist peptides and uses thereof” (Protagonist Therapeutics, Inc., priority 2017, dated 2019).

Protein sequences, listed by entry. Tags and fused reporters are not part of them.
UniProt P35372, whole entry: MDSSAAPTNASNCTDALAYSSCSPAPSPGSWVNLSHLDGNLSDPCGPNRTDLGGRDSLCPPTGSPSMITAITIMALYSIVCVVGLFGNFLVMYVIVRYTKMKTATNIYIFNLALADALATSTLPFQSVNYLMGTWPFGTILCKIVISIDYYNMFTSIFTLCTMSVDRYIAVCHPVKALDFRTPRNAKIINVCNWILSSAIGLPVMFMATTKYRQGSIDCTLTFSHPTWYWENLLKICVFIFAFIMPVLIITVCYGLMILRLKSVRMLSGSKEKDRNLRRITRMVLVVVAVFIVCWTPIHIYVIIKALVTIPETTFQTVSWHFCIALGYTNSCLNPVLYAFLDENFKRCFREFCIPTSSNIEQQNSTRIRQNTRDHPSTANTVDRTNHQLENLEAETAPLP

In one test the target is μ-opioid receptor (MOR) (Homo sapiens, UniProt P35372). The test can be described thus: MOR agonist cAMP assay (HitHunter cAMP, forskolin-stimulated). As to conditions: read-out: MOR EC50; MOR cAMP agonist activity. In kind it is cell-based.
The next test deals with δ-opioid receptor (DOR) (Homo sapiens, UniProt P41143). The test can be described thus: DOR agonist cAMP assay (HitHunter cAMP, forskolin-stimulated). As to conditions: read-out: DOR EC50; DOR cAMP agonist activity.

The term EC50 denotes the concentration needed to bring the measured effect to its halfway point. In the case of `C[C@@H](NC(=O)[C@@H]1Cc2ccc(O)cc2CN1)C(=O)NCC(=O)N[C@H](CC(=O)N(C)CC(N)=O)Cc1ccccc1`, the EC50 is more than 200 nM at μ-opioid receptor (MOR) and 10 to 50 nM on δ-opioid receptor (DOR).
